Test results from ChEMBL document CHEMBL1138930, “Discovery of novel triazole-based opioid receptor antagonists” (J Med Chem, 2006).

Legend:
[1] = tested on: Delta (Mus musculus) and kappa (Rattus norvegicus) opioid receptors; assay: Selectivity for delta opioid receptor over kappa opioid receptor
[2] = tested on: Delta and mu opioid receptors (Mus musculus); assay: Selectivity for delta opioid receptor over mu opioid receptor
[3] = biological target: Delta-type opioid receptor (Mus musculus) (UniProt P32300); assay: Inhibition of (-)-[9-3H]bremazocine binding to delta opioid receptor expressed in HEK293 cells
[4] = biological target: Delta-type opioid receptor (Mus musculus) (UniProt P32300); assay: Inhibition of (-)-[9-3H]bremazocine binding to delta opioid receptor at 10 uM

SMILES	Selectivity ratio [1]	Selectivity ratio [2]	Ki [3]	inhibition [4]
CN(C)c1nnc(-c2ccc(-c3ccccc3)cc2)n1-c1cccc(O)c1	> 76.9	> 76.9	–	–
Oc1cccc(-n2cnnc2-c2ccc(-c3ccccc3)cc2)c1	> 6.66	> 6.66	–	–
CN(C)c1nnc(-c2cccc(C(C)(C)C)c2)n1-c1cccc(O)c1	> 9.5	> 9.5	–	–
CN(C)CCc1nnc(-c2ccc(C(C)(C)C)cc2)n1-c1cccc(O)c1	> 11.1	> 11.1	–	–
CN(C)Cc1nnc(-c2ccc(C(C)(C)C)cc2)n1-c1cccc(O)c1	–	–	460 nM	88%
